US20260092124A1

Amino acid sequences for entries named in this document (tags omitted). Residues count along the entry.
UniProt P25942, 21-277: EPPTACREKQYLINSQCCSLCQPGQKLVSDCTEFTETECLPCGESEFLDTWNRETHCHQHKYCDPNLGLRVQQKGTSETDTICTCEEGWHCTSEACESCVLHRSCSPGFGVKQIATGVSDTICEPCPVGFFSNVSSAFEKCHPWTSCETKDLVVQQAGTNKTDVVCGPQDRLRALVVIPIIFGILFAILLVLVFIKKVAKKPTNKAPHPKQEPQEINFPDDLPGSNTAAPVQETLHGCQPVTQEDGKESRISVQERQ

Key:
[1] = target: human CD40 (human) (UniProt P25942); assay: cell binding (GpL luciferase, HT1080-CD40); mean, n=5
[2] = target: human CD40 (human) (UniProt P25942); assay: cell binding (GpL luciferase, HT1080-CD40); single representative experiment

Kd [1]: 0.272 µg/mL
Kd [2]: 0.27 µg/mL
Substance: ChiLob7.4 IgG1 variant
